Source: IntAct's records for PubMed 19864627

B1: Transcription factor p65 (Homo sapiens), Q04206 (parent)
chain: MDELFPLIFPAEPAQASGPYVEIIEQPKQRGMRFRYKCEGRSAGSIPGERSTDTTKTHPTIKINGYTGPGTVRISLVTKDPPHRPHPHELVGKDCRDGFYEAELCPDRCIHSFQNLGIQCVKKRDLEQAISQRIQTNNNPFQVPIEEQRGDYDLNAVRLCFQVTVRDPSGRPLRLPPVLSHPIFDNRAPNTAELKICRVNRNSGSCLGGDEIFLLCDKVQKEDIEVYFTGPGWEARGSFSQADVHRQVAIVFRTPPYADPSLQAPVRVSMQLRRPSDRELSEPMEFQYLPDTDDRHRIEEKRKRTYETFKSIMKKSPFSGPTDPRPPPRRIAVPSRSSASVPKPAPQPYPFTSSLSTINYDEFPTMVFPSGQISQASALAPAPPQVLPQAPAPAPAPAMVSALAQAPAPVPVLAPGPPQAVAPPAPKPTQAGEGTLSEALLQLQFDDEDLGALLGNSTDPAVFTDLASVDNSEFQQLLNQGIPVAPHTTEPMLMEYPEAITRLVTGAQRPPDPAPAPLGAPGLPNGLLSGDEDFSSIADMDFSALLSQISS
partner: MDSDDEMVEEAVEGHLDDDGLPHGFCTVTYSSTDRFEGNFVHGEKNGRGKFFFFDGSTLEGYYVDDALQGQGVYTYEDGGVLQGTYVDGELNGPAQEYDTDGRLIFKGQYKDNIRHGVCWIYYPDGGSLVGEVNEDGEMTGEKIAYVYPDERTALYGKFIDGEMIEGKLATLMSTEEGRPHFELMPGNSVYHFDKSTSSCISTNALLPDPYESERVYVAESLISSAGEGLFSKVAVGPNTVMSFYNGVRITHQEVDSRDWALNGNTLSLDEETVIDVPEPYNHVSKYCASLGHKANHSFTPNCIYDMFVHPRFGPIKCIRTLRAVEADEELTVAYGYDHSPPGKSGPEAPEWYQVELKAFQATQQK

Variants of: B1
Conditions: with setd7_human SETD7, Q8WTS6

| effect of a mutation on the interaction | Variant |
| --- | --- |
| disrupting interaction | K37R |
